For this assay, the target named is Ras-related protein Rab7, wildtype (dog). The assay is described as follows: extra analogs blocking nucleotide binding to Rab7 – biochemical, additional analogs, wildtype, multiplex bead flow cytometry, SAR follow-up (AID 2036). The settings on record: Rab7 GTP binding, measured here: Ki from EC50. (In general: Flow cytometry measures light scatter and fluorescence of single cells or particles in a stream.)

Broadly, the Ki is a measure of affinity in units of concentration, obtained from inhibition or displacement. Higher therefore signals lower affinity.

As for `COc1ccc2cc([C@@H](C)C(=O)O)ccc2c1`, the Ki came out at 90 nM.
